Source: PubChem BioAssay (National Center for Advancing Translational Sciences (NCATS))
Shown are actives, neighbours in structure and some others; about 1% of the full set was active somewhere.
RXFP1 agonist: RXFP1 (human) receptor agonism; Q9HBX9; HEK293T-RXFP1 cAMP TR-FRET, 30 min; response scale: percent of porcine relaxin response, buffer zero; Potency, µM (doses to about 57.5 µM), for inactives: at the top dose activation, hits mostly activators; 370,000 tested, 0.3% active; further: potency means the concentration at half of the fitted maximal effect; on the % scale 0 is the no-effect control and ±100 the full control effect; nearly all actives have a fitted effect of over 60% in size
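HEK293 cells stably expressing RXFP1, treated 30 min at 37C with compounds plus PDE4 inhibitor Ro 20174; cAMP measured by HTRF TR-FRET. Normalized to buffer and 29 nM porcine relaxin; EC50 by Hill fit.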
RXFP1 antag: antagonists of human relaxin receptor RXFP1; Q9HBX9; HEK293-RXFP1, relaxin-stimulated cAMP HTRF, 30 min; hits give low values; activity change, negative = inhibition, % at 57.5 µM; 350,000 tested, 0.59% active; AID 1259400;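 active means activity change of -60% or lower, but not beyond a set lower limit; inconclusive means change between -60% and -40%, or beyond the set limit; inactive means change above -40%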; further: on the % scale 0 is the no-effect control and ±100 the full control effect
Luc counter: blocks Kinase-Glo luciferase, a counter-screen artifact. Kinase-Glo luciferase, ATP luminescence, 8 min. Potency, µM (titrated, usually from 38.3 µM), for the others: top-dose activity change, negative = inhibition, usual class: inhibitors. 200,000 tested, 0.28% active. AID 1379; further: potency means the concentration at half of the fitted maximal effect; on the % scale 0 is the no-effect control and ±100 the full control effect; nearly all actives have a fitted effect of over 60% in size
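Luminescence was the read-out, taken after 8-minute incubation at ambient temperature. Luciferase turned over luciferin with 10 uM ATP in imidazole pH 7.2 buffer containing KCl, MgCl2, Tween 20 and BSA.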
gsp antag: antagonizes gsp, the McCune-Albright syndrome mutation | 340,000 tested, 0.4% active | Potency, µM (titrated, usually from 76.9 µM), inactives show at the highest dose activity change, negative = inhibition, actives largely listed as inhibitors | AID 624288 | gsp-mutant cells, cAMP HTRF, 30 min; calls by dose curve; cell line not stated here;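 further: intracellular cAMP measured with PDE inhibitor Ro 20-1724 present during compound exposure; potency means the concentration at half of the fitted maximal effect; on the % scale 0 is the no-effect control and ±100 the full control effect; nearly all actives have a fitted effect of over 65% in size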
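HTRF cAMP measurement after 30 min RT detection following 30 min, 37C compound treatment alongside […] (added as 300 uM solution) in G418-selected cells seeded at 2000/well and grown 16–24 h.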
gsp agonist: agonists of gsp mutant (McCune-Albright syndrome). 340,000 tested, 0.13% active. gsp mutant cells, cAMP HTRF, 30 min. Potency, µM (top dose mostly 76.9 µM), inactives show at the highest dose activation (cAMP increase), most hits filed as activators; active means well fitted activation curve with a large enough effect; inconclusive means small, poorly fitted or top-dose-only effect, or another doubt; inactive means no such curve, though single readings can be large or run the other way; cell line not stated here;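 further: phosphodiesterase inhibitor Ro 20-1724 added with compounds to block cAMP breakdown; potency means the concentration at half of the fitted maximal effect; nearly all actives have a fitted effect of over 60% in size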
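Cells stably selected in G418 were plated at 2000/well, grown 16-24 hr, then given compounds in DMSO with the PDE inhibitor […] (300 uM solution added) for 30 min at 37C; cAMP was read by HTRF.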
miR-21 reporter: raises the signal of a miR-21 reporter | HeLa miR-21 FLuc reporter, luciferase, 48 h | Potency, µM (highest dose often 38.3 µM), for inactives: at the highest dose reporter change, positive = more light | 340,000 tested, under 10 active | AID 2288; active = well fitted rising curve with a large enough effect; inconclusive = small, poorly fitted or top-dose-only effect; inactive = no such curve, though single readings can be large or run the other way;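 also: % of control where 0% means no effect; miR-21 action dims this reporter so a rising signal means less miR-21 action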
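Luminescence from a firefly luciferase reporter carrying a miR-21 binding site downstream, stably expressed under a CMV promoter in HeLa cells that make miR-21 endogenously, reports miRNA modulation after 48 h compound exposure up to approximately 40uM final.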
Numbers without * were called inactive; ? = inconclusive; nt = no result; [ ] = another dose, or the depositor's remark. Unless noted, the call rests on the fitted dose curve; in most records, active means well fitted curve in the direction sought with a large enough effect; inconclusive means small, poorly fitted or top-dose-only effect, or another doubt; inactive means no such curve, though single readings can be large; an effect the other way counts as inactive or inconclusive.

#1 O=C(c1ccc2c(c1)N(Cc1ccccc1)C(=O)c1ccccc1S2)N1CCCC1
#2 CN1C(=O)/C(=C/c2cccc(Cl)c2)Sc2ccc(C(=O)N3CCCC3)cc21
#3 Cc1cccc(CN2C(=O)c3ccccc3Sc3ccc(C(=O)N4CCCC4)cc32)c1
#4 CCOC(=O)C1CCCN(C(=O)c2ccc3c(c2)N(Cc2ccccc2)C(=O)c2ccccc2S3=O)C1 (stereo not drawn)
#5 Cc1cccc(/C=C2\Sc3ccc(C(=O)N4CCCCC4)cc3N(C)C2=O)c1

Assay by compound	1	2	3	4	5
RXFP1 agonist	-2%	0%	3%	1%	0%
RXFP1 antag	-3	2	-112*	-29	-32
Luc counter	12%	nt	nt	-2%	nt
gsp antag	?	8.9µM*	nt	8.9µM*	6%
gsp agonist	5%	0%	nt	-3%[15.4 µM]	-24%
miR-21 reporter	11%	19%	10%	3%	22%

#6 O=C(O)C(=O)Nc1cccc(-c2nn[nH]n2)c1
#7 Cc1cc(C)c(Cn2c3ccccc3c3cnn(CC(=O)NCCc4ccccc4)c(=O)c32)c(C)c1
#8 Brc1ccc(-c2nc(N/N=C/c3cccnc3)c3ccccc3n2)cc1
#9 C(=N\Nc1nc(-c2cccnc2)nc2ccccc12)/c1ccccc1
#10 CCc1nc2sc3c(c2c(=S)[nH]1)CC(C)(C)OC3

Assay by compound	6	7	8	9	10
RXFP1 agonist	nt	2%	3%	2%	20%
RXFP1 antag	2	4	0	-5	-66*
Luc counter	nt	nt	7.1µM*	nt	nt
gsp antag	nt	nt	-15%	-10%	-6%
gsp agonist	nt	nt	-29%	-9%[15.4 µM]	?
miR-21 reporter	nt	-3%	0%	5%	-12%

#11 Cc1ccc(CNC(=O)c2c(-c3ccccc3Cl)noc2C)o1
#12 CCc1cc2cc3c(cc2nc1SCC(=O)Nc1cc(C)on1)OCO3
#13 Cc1ccc(Cl)cc1NC(=O)c1ccc(NC(=O)N2CCSc3ncccc32)cc1
#14 CC(C)NC(=O)/C(C#N)=C/c1cccc(NC(=O)c2ccccc2Cl)c1
#15 O[C@@H](c1cc(C(F)(F)F)nc2c(Cl)cc(Cl)cc12)C1CCCCN1 (stereo partly drawn)

Assay by compound	11	12	13	14	15
RXFP1 agonist	4%	28µM*	0%	3%	nt
RXFP1 antag	-14	-1	-6	-63*	nt
Luc counter	nt	-4%	nt	-2%	-3%[7.66 µM]
gsp antag	nt	21%	nt	7%	nt
gsp agonist	nt	?	nt	-6%[15.4 µM]	nt
miR-21 reporter	-6%	1%	-29%	6%	nt

#16 CCCCc1nc2c(c3c1C[C@H](C)OC3)CN(S(=O)(=O)c1ccc(C#N)cc1)CC2
#17 CCOC(=O)c1cnc2ccc(Cl)cc2c1Nc1ccc(N2CCOCC2)cc1
#18 CCOC(=O)c1cnc2ccccc2c1Nc1ccc(C(=O)O)cc1
#19 CCOC(=O)c1cnc2ccc(C)cc2c1Nc1ccc(N2CCOCC2)cc1
#20 CCOC(=O)c1cnc2ccc(C)cc2c1Nc1ccc(N(CC)CC)cc1

Assay by compound	16	17	18	19	20
RXFP1 agonist	nt	2%	7%	1%	6%
RXFP1 antag	nt	-11	7	-101*	-70*
Luc counter	-5%[7.66 µM]	nt	2%	-6%	nt
gsp antag	nt	nt	-28%	?	nt
gsp agonist	nt	nt	?	-14%	nt
miR-21 reporter	nt	23%	-17%	28%	19%

Copied from the entries so far, two compounds:
#19 CCOC(=O)c1cnc2ccc(C)cc2c1Nc1ccc(N2CCOCC2)cc1
#20 CCOC(=O)c1cnc2ccc(C)cc2c1Nc1ccc(N(CC)CC)cc1

Assay by compound	19	20
RXFP1 agonist	1%	6%
RXFP1 antag	-101*	-70*
Luc counter	-6%	nt
gsp antag	?	nt
gsp agonist	-14%	nt
miR-21 reporter	28%	19%

Next section.
#21 O=C(COc1ccc(F)cc1)Nc1ccc2nc(SCC(=O)N3CCOCC3)sc2c1
#22 O=C(O)c1ccc(N=Nc2c(O)[nH]c3ccccc23)cc1
#23 CSc1cccc(NC(=O)Cn2c3ncccc3c(=O)n2-c2ccc(C)cc2)c1
#24 O=C(NCCCCc1ccccc1)c1nn(-c2ccccc2)nc1CO
#25 O=C(NCC(c1ccccc1)c1ccccc1)c1nn(-c2ccccc2Cl)nc1CO

Assay by compound	21	22	23	24	25
RXFP1 agonist	0%	-1%	2%	0%	1%
RXFP1 antag	?	-1	-18	-69*	-66*
Luc counter	nt	nt	nt	nt	nt
gsp antag	nt	28µM*	nt	nt	nt
gsp agonist	nt	?	nt	nt	nt
miR-21 reporter	?	-45%	-3%	7%	?

Arranged by value in miR-21 reporter (high to low): 3 of the compounds above.
| nr | smiles | RXFP1 antag | gsp agonist | miR-21 reporter |
| --- | --- | --- | --- | --- |
| 24 | O=C(NCCCCc1ccccc1)c1nn(-c2ccccc2)nc1CO | -69* | nt | 7% |
| 23 | CSc1cccc(NC(=O)Cn2c3ncccc3c(=O)n2-c2ccc(C)cc2)c1 | -18 | nt | -3% |
| 22 | O=C(O)c1ccc(N=Nc2c(O)[nH]c3ccccc23)cc1 | -1 | ? | -45% |

Later entries:
#26 CC(C)NCCCC1(C(N)=O)c2ccccc2-c2ccccc21
#27 COc1ccc(CCNc2oc(COc3ccc(Cl)cc3)nc2C#N)cc1OC
#28 COc1ccc(CCNc2oc(COc3cccc(C)c3)nc2C#N)cc1OC
#29 Cc1cc(C)n2nc(C(=O)OCC(=O)Nc3ccc4c(c3)OCO4)nc2n1
#30 Cc1ccnc2nc(C(=O)Nc3ccc4c(c3)OCO4)nn12

Assay by compound	26	27	28	29	30
RXFP1 agonist	nt	0%	0%	0%	20%
RXFP1 antag	-3	-64*	-5	8	2
Luc counter	nt	nt	nt	-6%	13µM*
gsp antag	nt	nt	nt	3%	14%
gsp agonist	nt	nt	nt	11%	?
miR-21 reporter	nt	25%	-5%	0%	-39%

#31 Cc1cc(C)n2nc(C(=O)Nc3ccc4c(c3)OCO4)nc2n1
#32 Cc1cc(C)n2nc(C(=O)Nc3ccc4c(c3)OCCO4)nc2n1
#33 CCC(C)(C)c1ccc(CC(C)CN2C[C@@H](C)O[C@@H](C)C2)cc1 (stereo partly drawn)
#34 COc1ccc(Cl)cc1NC(=O)Cc1coc2c(C)c(C)ccc12
#35 Cc1oc(-c2cccc(Cl)c2)nc1CS(=O)(=O)CC(=O)NCc1ccccc1Cl

Assay by compound	31	32	33	34	35
RXFP1 agonist	19%	14µM*	nt	-3%	-1%
RXFP1 antag	-7	16	-32	-21	nt
Luc counter	?	nt	nt	nt	nt
gsp antag	-5%	-4%	nt	nt	nt
gsp agonist	?	?	nt	nt	nt
miR-21 reporter	-39%	nt	nt	-6%	-1%

#36 COc1ccc2nc3c(nc2c1)C(=O)c1ccccc1-3
#37 CC(=O)N1c2nc(-c3ccco3)nn2C2(CCCCC2)[C@@H]2CCCC[C@@H]21
#38 CCCC(=O)N1c2nc(-c3ccco3)nn2C2(CCCCC2)[C@@H]2CCCC[C@@H]21
#39 Cc1cccc(C)c1NC(=O)/C(=C/c1ccco1)c1ccccc1
#40 Cc1cc(C)c(NC(=O)/C(=C/c2ccco2)c2ccccc2)c(C)c1

Assay by compound	36	37	38	39	40
RXFP1 agonist	nt	1%	0%	1%	0%
RXFP1 antag	nt	-26	-66*	7	-7
Luc counter	-8%	nt	nt	-6%	0%
gsp antag	nt	nt	nt	-10%	40µM*
gsp agonist	nt	nt	nt	-15%	-8%
miR-21 reporter	nt	-3%	-1%	2%	1%

#41 O=C(O)C1CCC1
#42 Cc1cccc(Nc2nc(-c3ccc(O)cc3O)cs2)n1
#43 COC(=O)c1sc(-c2cccs2)cc1NC(=O)/C=C/C(=O)O
#44 COC(=O)c1sc(-c2ccccc2)cc1NC(C)=O
#45 Cn1c(=O)c2c(ncn2C[C@@H](O)CO)n(C)c1=O

Assay by compound	41	42	43	44	45
RXFP1 agonist	nt	1%	15%	9%	nt
RXFP1 antag	10	-79*	?	9	nt
Luc counter	nt	nt	nt	-2%	-2%[17.1 µM]
gsp antag	nt	-5%	22µM*	-7%	nt
gsp agonist	nt	-13%	?	22%[15.4 µM]	nt
miR-21 reporter	nt	-57%	3%	-20%	nt

#46 CC(C)(C)c1csc(NC(=O)c2ccc(Cl)s2)n1
#47 CN1CCN(c2nc3c(c(=O)n(C)c(=O)n3C)n2Cc2cccc3ccccc23)CC1
#48 Cn1c(=O)c2c(nc(N3CCOCC3)n2C)n(C)c1=O
#49 Cn1c(=O)c2c(nc(N3CCCC3)n2C)n(C)c1=O
#50 COc1ccc(CCNC(=O)CCc2c(C)c3cc4c(C)coc4c(C)c3oc2=O)cc1OC
#51 Cc1ccc(CNC(=O)c2cnc(N3CCCCC3)c3ccccc23)cc1
#52 Cc1sccc1Br

Assay by compound	46	47	48	49	50	51	52
RXFP1 agonist	-1%	0%	2%	15%	1%	17%	nt
RXFP1 antag	-101*	-20	2	-2	-1	?	13
Luc counter	2%	2%	1%	nt	nt	nt	nt
gsp antag	?	3%	-2%	-5%	nt	nt	nt
gsp agonist	-18%	25µM*	27%	20µM*	nt	nt	nt
miR-21 reporter	7%	-7%	0%	4%	3%	0%	nt
